Only a part is listed here, and it is no random draw. Calls of active or inactive are those of the source.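 Rule for the calls: active = superoxide signal below 65% of the plate average of sample wells; inactive = the rest.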
Assay: retest of yeast aging ROS inhibitors – cherry picked compounds, confirmation (AID 434994);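 note: cells aged with compound for 7 days at 30 degrees C before staining; 100% equals mean DHE fluorescence of all compound wells on the plate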
Conditions: S. cerevisiae aging, superoxide DHE fluorescence; at 10 µM; hits give low values

## O=C(OC1CN2CCC1CC2)c1ccccc1 (stereo unspecified)
  superoxide response (% of plate): inactive: 98.5%

From PubChem BioAssay AID434994 (NMMLSC, 2010)
